Results as given in EP4834897A1, “COMPOUNDS WITH TWO AZAHETEROCYCLES SUBSTITUTED ISOINDOLINONE SKELETON AND USES THEREOF” (dated 2026).

Sequences of proteins named here, by UniProt entry; tags and fusion partners are left off.
UniProt Q96SW2, whole entry: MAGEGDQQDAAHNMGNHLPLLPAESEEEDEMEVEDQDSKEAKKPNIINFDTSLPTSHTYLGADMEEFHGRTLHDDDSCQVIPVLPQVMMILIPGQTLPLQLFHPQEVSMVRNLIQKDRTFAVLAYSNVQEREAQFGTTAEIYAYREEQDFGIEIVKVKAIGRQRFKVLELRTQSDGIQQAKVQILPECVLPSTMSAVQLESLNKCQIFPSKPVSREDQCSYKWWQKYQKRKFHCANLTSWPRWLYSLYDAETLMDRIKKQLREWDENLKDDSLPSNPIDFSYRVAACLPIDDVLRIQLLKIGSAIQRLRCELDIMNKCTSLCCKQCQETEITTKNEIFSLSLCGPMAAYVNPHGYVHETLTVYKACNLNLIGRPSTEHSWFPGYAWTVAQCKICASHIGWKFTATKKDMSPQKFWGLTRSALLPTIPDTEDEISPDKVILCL
UniProt Q9UKS7, whole entry: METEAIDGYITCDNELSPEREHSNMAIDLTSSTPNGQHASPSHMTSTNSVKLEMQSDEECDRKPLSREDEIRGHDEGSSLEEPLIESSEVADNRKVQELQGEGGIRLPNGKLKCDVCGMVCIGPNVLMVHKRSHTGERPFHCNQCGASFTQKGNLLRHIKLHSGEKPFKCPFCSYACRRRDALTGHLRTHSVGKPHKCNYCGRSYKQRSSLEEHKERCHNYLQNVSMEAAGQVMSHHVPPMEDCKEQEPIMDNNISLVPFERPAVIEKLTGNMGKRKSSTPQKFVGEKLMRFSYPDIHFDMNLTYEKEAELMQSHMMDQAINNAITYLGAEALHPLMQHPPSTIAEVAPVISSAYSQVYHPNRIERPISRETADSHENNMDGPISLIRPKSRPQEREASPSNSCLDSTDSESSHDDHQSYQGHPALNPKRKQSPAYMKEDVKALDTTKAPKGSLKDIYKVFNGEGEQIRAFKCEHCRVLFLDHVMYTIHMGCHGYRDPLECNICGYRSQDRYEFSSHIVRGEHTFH
UniProt P30291, whole entry: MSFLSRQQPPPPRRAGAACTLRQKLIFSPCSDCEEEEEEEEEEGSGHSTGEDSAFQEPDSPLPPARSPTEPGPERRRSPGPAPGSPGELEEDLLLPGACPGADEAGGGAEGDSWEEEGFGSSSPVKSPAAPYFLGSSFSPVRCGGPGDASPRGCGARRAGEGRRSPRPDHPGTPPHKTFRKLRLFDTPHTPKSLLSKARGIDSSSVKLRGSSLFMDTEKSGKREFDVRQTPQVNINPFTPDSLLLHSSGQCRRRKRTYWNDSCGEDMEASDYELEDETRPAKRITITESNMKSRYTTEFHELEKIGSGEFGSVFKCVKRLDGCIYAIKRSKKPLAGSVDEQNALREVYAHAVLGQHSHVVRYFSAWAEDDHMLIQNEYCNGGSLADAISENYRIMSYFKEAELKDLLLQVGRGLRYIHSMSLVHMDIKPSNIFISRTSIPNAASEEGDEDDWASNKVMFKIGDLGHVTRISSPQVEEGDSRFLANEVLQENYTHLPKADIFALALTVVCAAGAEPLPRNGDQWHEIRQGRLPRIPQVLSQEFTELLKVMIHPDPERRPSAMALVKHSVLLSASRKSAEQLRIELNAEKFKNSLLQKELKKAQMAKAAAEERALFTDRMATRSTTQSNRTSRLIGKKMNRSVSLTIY
UniProt P48729, whole entry: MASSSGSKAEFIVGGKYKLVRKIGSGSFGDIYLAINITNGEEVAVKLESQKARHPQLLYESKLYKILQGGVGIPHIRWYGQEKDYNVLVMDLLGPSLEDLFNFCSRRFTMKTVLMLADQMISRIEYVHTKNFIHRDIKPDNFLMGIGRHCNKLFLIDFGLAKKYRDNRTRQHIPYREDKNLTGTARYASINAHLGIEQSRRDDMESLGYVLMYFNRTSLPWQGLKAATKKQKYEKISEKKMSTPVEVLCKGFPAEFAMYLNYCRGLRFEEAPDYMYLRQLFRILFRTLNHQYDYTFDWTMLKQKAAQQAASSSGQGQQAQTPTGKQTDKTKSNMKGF
UniProt Q13422, whole entry: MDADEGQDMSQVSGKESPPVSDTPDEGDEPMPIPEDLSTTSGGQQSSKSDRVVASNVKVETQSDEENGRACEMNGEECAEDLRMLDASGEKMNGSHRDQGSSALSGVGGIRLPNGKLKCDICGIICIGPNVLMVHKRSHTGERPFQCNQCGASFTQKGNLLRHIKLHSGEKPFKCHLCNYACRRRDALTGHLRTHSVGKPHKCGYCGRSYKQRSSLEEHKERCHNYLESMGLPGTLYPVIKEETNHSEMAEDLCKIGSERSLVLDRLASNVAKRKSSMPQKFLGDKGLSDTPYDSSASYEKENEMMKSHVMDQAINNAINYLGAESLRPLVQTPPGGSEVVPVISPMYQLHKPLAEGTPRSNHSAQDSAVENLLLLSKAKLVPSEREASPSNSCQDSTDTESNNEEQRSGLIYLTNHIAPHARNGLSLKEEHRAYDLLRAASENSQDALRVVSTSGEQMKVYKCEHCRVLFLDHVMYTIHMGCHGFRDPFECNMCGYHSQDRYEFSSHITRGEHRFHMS
UniProt Q9UKT9, whole entry: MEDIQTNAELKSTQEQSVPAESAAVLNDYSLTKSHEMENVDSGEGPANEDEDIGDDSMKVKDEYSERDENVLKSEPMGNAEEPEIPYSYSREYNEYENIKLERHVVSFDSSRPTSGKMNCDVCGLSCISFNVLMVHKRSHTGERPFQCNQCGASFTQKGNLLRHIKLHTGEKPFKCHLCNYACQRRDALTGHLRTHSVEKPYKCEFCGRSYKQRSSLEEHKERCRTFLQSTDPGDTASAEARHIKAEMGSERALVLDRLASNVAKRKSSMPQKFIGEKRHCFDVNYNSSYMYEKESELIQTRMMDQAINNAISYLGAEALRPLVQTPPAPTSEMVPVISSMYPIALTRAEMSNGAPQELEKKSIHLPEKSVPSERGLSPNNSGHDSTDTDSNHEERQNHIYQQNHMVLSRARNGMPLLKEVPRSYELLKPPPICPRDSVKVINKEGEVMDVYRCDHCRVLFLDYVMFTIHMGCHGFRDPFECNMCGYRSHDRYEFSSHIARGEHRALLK
UniProt P15170, whole entry: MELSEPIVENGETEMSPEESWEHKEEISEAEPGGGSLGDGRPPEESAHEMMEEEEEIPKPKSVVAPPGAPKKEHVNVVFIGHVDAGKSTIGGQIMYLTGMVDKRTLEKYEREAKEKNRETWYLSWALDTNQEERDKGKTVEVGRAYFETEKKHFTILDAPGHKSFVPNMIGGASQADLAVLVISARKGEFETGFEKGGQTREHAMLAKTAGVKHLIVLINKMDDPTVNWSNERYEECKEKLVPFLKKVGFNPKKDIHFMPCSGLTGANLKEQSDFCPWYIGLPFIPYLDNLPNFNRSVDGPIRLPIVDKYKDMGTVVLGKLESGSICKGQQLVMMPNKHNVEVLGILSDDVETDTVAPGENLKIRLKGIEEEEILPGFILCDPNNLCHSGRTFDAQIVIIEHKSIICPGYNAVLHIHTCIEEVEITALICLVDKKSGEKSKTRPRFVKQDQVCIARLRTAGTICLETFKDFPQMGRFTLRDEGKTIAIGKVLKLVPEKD
UniProt Q16531, whole entry partner: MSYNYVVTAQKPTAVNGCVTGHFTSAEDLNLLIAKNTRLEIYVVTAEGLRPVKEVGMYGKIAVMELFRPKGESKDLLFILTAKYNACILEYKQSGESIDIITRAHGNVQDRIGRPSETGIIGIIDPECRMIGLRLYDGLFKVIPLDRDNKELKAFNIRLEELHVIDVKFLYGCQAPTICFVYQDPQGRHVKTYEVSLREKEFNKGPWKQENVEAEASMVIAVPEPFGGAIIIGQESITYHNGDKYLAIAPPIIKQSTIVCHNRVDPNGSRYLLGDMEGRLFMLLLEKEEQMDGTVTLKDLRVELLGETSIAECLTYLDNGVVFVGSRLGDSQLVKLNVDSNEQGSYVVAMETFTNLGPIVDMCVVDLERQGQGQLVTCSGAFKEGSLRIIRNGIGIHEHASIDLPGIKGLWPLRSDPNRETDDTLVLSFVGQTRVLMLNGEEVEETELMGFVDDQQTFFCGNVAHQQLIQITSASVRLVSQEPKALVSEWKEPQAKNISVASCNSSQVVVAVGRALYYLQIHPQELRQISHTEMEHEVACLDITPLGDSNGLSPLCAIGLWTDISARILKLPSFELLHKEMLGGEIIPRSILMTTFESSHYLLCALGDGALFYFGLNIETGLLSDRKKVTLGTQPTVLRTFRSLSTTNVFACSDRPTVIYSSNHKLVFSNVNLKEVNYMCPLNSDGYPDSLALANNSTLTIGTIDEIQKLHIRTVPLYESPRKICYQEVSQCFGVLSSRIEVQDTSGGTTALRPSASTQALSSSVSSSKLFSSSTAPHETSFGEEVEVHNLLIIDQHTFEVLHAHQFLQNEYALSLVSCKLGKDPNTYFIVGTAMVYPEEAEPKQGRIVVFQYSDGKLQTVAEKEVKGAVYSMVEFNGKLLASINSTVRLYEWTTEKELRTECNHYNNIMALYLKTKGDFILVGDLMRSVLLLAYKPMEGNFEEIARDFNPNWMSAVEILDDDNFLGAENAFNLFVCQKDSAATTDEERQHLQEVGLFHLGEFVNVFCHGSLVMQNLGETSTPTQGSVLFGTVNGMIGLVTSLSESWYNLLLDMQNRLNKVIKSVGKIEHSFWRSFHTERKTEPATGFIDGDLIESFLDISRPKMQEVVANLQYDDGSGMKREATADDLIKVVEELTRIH

Columns and labels:
[1] = test system: TNF-α; assay: Inflammatory cytokine release from PBMCs induced by PHA (flow cytometry CBA); settings: PHA 1 µg/mL, 24 h
[2] = test system: IL-2; assay: as above; settings: PBMCs, PHA 1 µg/mL, 24 h
[3] = biological target: CRBN (Homo sapiens, UniProt Q96SW2); assay: CRBN binding affinity by HTRF (CEREBLON BINDING kit); settings: for Inhibition Rate at 0.5 µM (%) / Inhibition Rate at 2 µM (%): CRBN binding, HTRF; for Inhibition Rate at 0.5 µM (%): compound at 0.5 µM; for Inhibition Rate at 2 µM (%): compound at 2 µM
[4] = biological target: IKZF2 (Homo sapiens, UniProt Q96SW2+Q9UKS7); assay: Western blot assay of substrate protein degradation in hPBMCs; settings: 24 hours treatment, compounds at 50 nM and 500 nM (concentration behind the class not stated)
[5] = biological target: WEE1 (Homo sapiens, UniProt P30291+Q96SW2); assay: as above; settings: 24 hours treatment, compounds at 50 nM and 500 nM (concentration behind the class not stated)
[6] = biological target: CK1α (Homo sapiens, UniProt P48729+Q96SW2); assay: as above; settings: 24 hours treatment, compounds at 50 nM and 500 nM (concentration behind the class not stated)
[7] = biological target: IKZF1 (Homo sapiens, UniProt Q13422+Q96SW2); assay: as above; settings: 24 hours treatment, compounds at 50 nM and 500 nM (concentration behind the class not stated)
[8] = biological target: IKZF3 (Homo sapiens, UniProt Q96SW2+Q9UKT9); assay: as above; settings: 24 hours treatment, compounds at 50 nM and 500 nM (concentration behind the class not stated)
[9] = biological target: GSPT1 (Homo sapiens, UniProt P15170+Q96SW2); assay: as above; settings: 24 hours treatment, compounds at 50 nM and 500 nM (concentration behind the class not stated)
[10] = test system: Human myeloid monocytic leukemia cell (MV-4-11); assay: Tumor cell proliferation inhibition (cell viability assay); settings: MV-4-11 cells, 96 hours
[11] = test system: Human acute T lymphocytic leukemia cell (Molt4); assay: as above; settings: Molt4 cells, 96 hours

| SMILES | Inhibition Rate (%) TNF-α ([1]; 0.1 µM) | Inhibition Rate (%) TNF-α ([1]; 1 µM) | Inhibition Rate (%) IL-2 ([2]; 0.1 µM) | Inhibition Rate (%) IL-2 ([2]; 1 µM) | Inhibition Rate at 0.5 µM (%) [3] | Inhibition Rate at 2 µM (%) [3] | substrate protein remaining % (IKZF2) [4] | substrate protein remaining % (WEE1) [5] | substrate protein remaining % (CK1a) [6] | substrate protein remaining % (IKZF 1) [7] | substrate protein remaining % (IKZF3) [8] | substrate protein remaining % (GSPT1) [9] | Inhibition Rate at 10 nM (%) [10] | Inhibition Rate at 500 nM (%) [10] | Inhibition Rate at 10 nM (%) [11] | Inhibition Rate at 500 nM (%) [11] | IC50 ([3]; read-out: HTRF IC50, human Cereblon WT GST-tagged protein, 3 hours at room temperature) |
| --- | --- | --- | --- | --- | --- | --- | --- | --- | --- | --- | --- | --- | --- | --- | --- | --- | --- |
| O=C1CCC(N2Cc3ccc(C(=O)N4CCC(N5CCN(c6cccc(Cl)c6Cl)CC5)C(F)(F)C4)cc3C2=O)C(=O)N1 (centres unmarked) | IV7 (20% < IV7 ≤ 30%) | IV9 (40% < IV9 ≤ 50%) | IV7 (20% < IV7 ≤ 30%) | IV9 (40% < IV9 ≤ 50%) | a3 (30% < a3 ≤ 40%) | a6 (60% < a6 ≤ 70%) |  |  |  |  |  |  |  |  |  |  |  |
| O=C1CCC(N2C(=O)c3ccc(CN4CCC(N5CCN(c6cccc(Cl)c6Cl)CC5)CC4)cc3C2=O)C(=O)N1 (centres unmarked) | IV9 (40% < IV9 ≤ 50%) | IV8 (30% < IV8 ≤ 40%) | IV9 (40% < IV9 ≤ 50%) | IV7 (20% < IV7 ≤ 30%) |  |  | B (80%< substrate protein remaining %≤ 100%) | B (80%< substrate protein remaining %≤ 100%) | B (80%< substrate protein remaining %≤ 100%) | B (80%< substrate protein remaining %≤ 100%) | A (0% ≤ substrate protein remaining % ≤ 80%) | B (80%< substrate protein remaining %≤ 100%) |  |  |  |  |  |
| O=C1CCN(N2C(=O)c3ccc(CN4CCC(N5CCN(C(c6ccccc6)c6ccccc6)CC5)CC4)cc3C2=O)C(=O)N1 | IV10 (50% < IV 10 ≤ 60%) | IV7 (20% < IV7 ≤ 30%) | IV11 (60% < IV11 ≤ 70%) |  |  |  |  |  |  |  |  |  |  |  |  |  |  |
| O=C1CCC(N2Cc3cc(C(=O)N4CCC(N5CCN(C(c6ccccc6)c6ccccc6)CC5)C(F)(F)C4)c(F)cc3C2=O)C(=O)N1 (centres unmarked) |  |  | IV10 (50% < IV 10 ≤ 60%) | IV1 0 | a3 (30% < a3 ≤ 40%) | a6 (60% < a6 ≤ 70%) |  |  |  |  |  |  | 1a3 (10% ≤ 1a3 < 20%) | 1a7 (50% ≤ 1a7 < 60%) | 1c2 (0 < 1c2 < 5%) | 1c7 (40% ≤ 1c7 < 50%) |  |
| O=C1CCC(N2Cc3cc(C(=O)N4CCC(N5CCN(c6noc7cc(F)ccc67)CC5)C(F)(F)C4)ccc3C2=O)C(=O)N1 (centres unmarked) |  |  |  |  | a4 (40% < a4 ≤ 53%) | a6 (60% < a6 ≤ 70%) | B (80%< substrate protein remaining %≤ 100%) | B (80%< substrate protein remaining %≤ 100%) | B (80%< substrate protein remaining %≤ 100%) | A (0% ≤ substrate protein remaining % ≤ 80%) | B (80%< substrate protein remaining %≤ 100%) | A (0% ≤ substrate protein remaining % ≤ 80%) | 1a6 (40% < 1a6 < 50%) | 1a10 (80% ≤ 1a10 < 100%) | 1c3 (5% ≤ 1c3 < 10%) | 1c8 (50% ≤ 1c8 < 60%) |  |
| O=C1CCN(N2Cc3cc(CN4CCC(N5CCN(c6cccc(Cl)c6Cl)CC5)CC4)ccc3C2=O)C(=O)N1 | IV9 (40% < IV9 ≤ 50%) | IV8 (30% < IV8 ≤ 40%) | IV11 (60% < IV11 ≤ 70%) |  |  |  |  |  |  |  |  |  |  |  |  |  |  |
| O=C1CCC(N2Cc3cc(CN4CCC(N5CCN(C(c6ccccc6)c6ccccn6)CC5)C(F)(F)C4)ccc3C2=S)C(=O)N1 (centres unmarked) | IV9 (40% < IV9 ≤ 50%) | IV9 (40% < IV9 ≤ 50%) | IV12 (70% < IV12 ≤ 80%) |  |  |  | B (80%< substrate protein remaining %≤ 100%) | B (80%< substrate protein remaining %≤ 100%) | B (80%< substrate protein remaining %≤ 100%) | B (80%< substrate protein remaining %≤ 100%) | A (0% ≤ substrate protein remaining % ≤ 80%) | B (80%< substrate protein remaining %≤ 100%) |  |  |  |  | 500 to 1000 nM |
| O=C1CCC(N2Cc3cc(CCN4CCC(N5CCN(c6cccc(Cl)c6Cl)CC5)CC4)ccc3C2=O)C(=O)N1 (centres unmarked) | IV9 (40% < IV9 ≤ 50%) | IV9 (40% < IV9 ≤ 50%) |  |  | a8 (80% < a8 ≤100%) | a8 (80% < a8 ≤100%) | B (80%< substrate protein remaining %≤ 100%) | B (80%< substrate protein remaining %≤ 100%) | B (80%< substrate protein remaining %≤ 100%) | B (80%< substrate protein remaining %≤ 100%) | B (80%< substrate protein remaining %≤ 100%) | A (0% ≤ substrate protein remaining % ≤ 80%) |  |  |  |  |  |
| O=C1CCC(N2Cc3cc(C(=O)N4CCC(N5CCC(c6noc7cc(F)ccc67)CC5)C(F)(F)C4)c(F)cc3C2=O)C(=O)N1 (centres unmarked) |  |  |  |  | a4 (40% < a4 ≤ 53%) | a8 (80% < a8 ≤100%) | B (80%< substrate protein remaining %≤ 100%) | A (0% ≤ substrate protein remaining % ≤ 80%) | B (80%< substrate protein remaining %≤ 100%) | B (80%< substrate protein remaining %≤ 100%) | B (80%< substrate protein remaining %≤ 100%) | A (0% ≤ substrate protein remaining % ≤ 80%) | 1a7 (50% ≤ 1a7 < 60%) | 1a10 (80% ≤ 1a10 < 100%) | 1c4 (10% ≤ 1c4 < 20%) | 1c9 (60% ≤ 1c9 < 70%) |  |
| O=C1CCN(N2C(=O)c3ccc(CN4CCC(N5CC=C(c6cccc(Cl)c6Cl)CC5)C(F)(F)C4)cc3C2=O)C(=O)N1 (centres unmarked) | IV10 (50% < IV 10 ≤ 60%) | IV9 (40% < IV9 ≤ 50%) | IV10 (50% < IV 10 ≤ 60%) |  |  |  | B (80%< substrate protein remaining %≤ 100%) | B (80%< substrate protein remaining %≤ 100%) | B (80%< substrate protein remaining %≤ 100%) | B (80%< substrate protein remaining %≤ 100%) | B (80%< substrate protein remaining %≤ 100%) | A (0% ≤ substrate protein remaining % ≤ 80%) |  |  |  |  |  |
| O=C1CCC(N2Cc3ccc(CN4CCC(N5CCN(C(c6ccccc6)c6ccccc6)CC5)C(F)(F)C4)cc3C2=O)C(=O)N1 (centres unmarked) | IV9 (40% < IV9 ≤ 50%) | IV9 (40% < IV9 ≤ 50%) | IV10 (50% < IV 10 ≤ 60%) | IV9 (40% < IV9 ≤ 50%) | a2 (20% < a2 ≤ 30%) | a5 (53% < a5 ≤ 60%) |  |  |  |  |  |  |  |  |  |  |  |
| O=C1CCN(N2Cc3cc(CN4CCC(N5CCC(c6noc7cc(F)ccc67)CC5)C(F)(F)C4)ccc3C2=O)C(=O)N1 (centres unmarked) | IV8 (30% < IV8 ≤ 40%) |  | IV10 (50% < IV 10 ≤ 60%) | IV9 (40% < IV9 ≤ 50%) |  |  | B (80%< substrate protein remaining %≤ 100%) | A (0% ≤ substrate protein remaining % ≤ 80%) | B (80%< substrate protein remaining %≤ 100%) | A (0% ≤ substrate protein remaining % ≤ 80%) | B (80%< substrate protein remaining %≤ 100%) | A (0% ≤ substrate protein remaining % ≤ 80%) |  |  |  |  |  |
